Consider one compound from ChEMBL document CHEMBL3596175, “Synthesis and in vitro kinetic evaluation of N-thiazolylacetamido monoquaternary pyridinium oximes as reactivators of sarin, O-ethylsarin and VX inhibited human acetylcholinesterase (hAChE)” (2015).

Molecules are shown by their SMILES.

Assay [1] concerns the target T1, Acetylcholinesterase (Homo sapiens, UniProt P22303). Nature of the assay: Reactivation of VX-inhibited human acetylcholinesterase assessed as dissociation constant incubated for 60 mins using ATChI substrate by DTNB dye based UV-visible spectrophotometry.
The target in assay [2] is T1, Acetylcholinesterase. Briefly: Reactivation of sarin-inhibited human acetylcholinesterase assessed as dissociation constant incubated for 60 mins using ATChI substrate by DTNB dye based UV-visible spectrophotometry.

The term Kd denotes the constant that tells how readily two partners part at equilibrium. Take `CCOC(=O)c1csc(NC(=O)C[n+]2cccc(/C=N/O)c2)n1`: the Kd in assay [1] was found to be 58.4 µM; in assay [2], 75.5 µM.
